The values below come from PubChem BioAssay AID2099 (Broad Institute, 2009).

The chains behind the UniProt entries cited, without tags or fusion partners. Residues count along the entry.
UniProt Q9H3R0, 1-420 limits assumed: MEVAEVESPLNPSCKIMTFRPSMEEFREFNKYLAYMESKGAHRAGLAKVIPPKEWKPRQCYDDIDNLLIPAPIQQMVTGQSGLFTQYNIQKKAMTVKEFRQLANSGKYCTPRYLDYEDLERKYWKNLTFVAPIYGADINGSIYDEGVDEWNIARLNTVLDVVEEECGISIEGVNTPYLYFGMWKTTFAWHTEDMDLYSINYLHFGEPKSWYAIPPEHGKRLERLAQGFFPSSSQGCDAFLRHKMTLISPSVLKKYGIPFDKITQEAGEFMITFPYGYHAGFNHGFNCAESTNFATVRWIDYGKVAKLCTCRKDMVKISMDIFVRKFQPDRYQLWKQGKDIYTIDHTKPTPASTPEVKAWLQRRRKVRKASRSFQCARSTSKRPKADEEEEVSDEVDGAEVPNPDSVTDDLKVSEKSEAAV

SMILES strings stand for the structures. This is a selection; strong and weak results do not stand in their true shares. Activity calls are given as the source filed them.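 The calls were made as follows: active = more than half of a compound's replicate wells show inhibition beyond 50%, single wells judged on their own value; inconclusive = some, but no more than half, of replicates pass 50% inhibition; inactive = no replicate passes 50% inhibition.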

The target in this assay is Lysine-specific demethylase 4C (Homo sapiens) (UniProt Q9H3R0). Briefly: JMJD2C H3K9me3 demethylation blockers – biochemical, fluorescence, DELFIA europium, primary screen (AID 2099).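 Also: signal counts dimethyl H3K9 product captured on neutravidin plate; 0% = median of DMSO wells and 100% = 0.3 times that DMSO median.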 Particulars: GST-JMJD2C(1-420) H3K9me3 demethylation, at 2.35 µM, hits give high values.
For `CCCOc1ccc(C(=O)NCC2(N(C)C)CCCCC2)cc1OC`, the inhibition – broadly, the drop in the measured response relative to a control, in per cent – was inactive: -3.08%.

In the case of `CN1CCC(Nc2cccc(F)c2)CC1`, the inhibition is inactive: -3.25%.

As for `O=C(NCC1(N2CCCCC2)CCCCC1)c1cncc(Br)c1`, the inhibition is inactive: 0.172%.

Turning to `COc1cc(OC)c(C(=O)NCC2(N(C)C)CCCCC2)cc1OC`, the inhibition was inactive: -1.24%.

Regarding `O=C(NCC1(N2CCOCC2)CCCCC1)c1cc(F)c(F)cc1Cl`, the inhibition is inactive: -5.18%.

Take `CC(C)c1ccc(NC2CCN(C(=O)OC(C)(C)C)CC2)cc1`: the inhibition was inactive: -4.2%.

`COc1ccc(CN(CCCl)CCCl)cc1Cl`: the inhibition is inactive: -21.6%.

On to `CN(C)c1cccc(C(=O)NCC2(N3CCCCC3)CCCCC2)c1`, for which the inhibition was inactive: -31%.

Turning to `O=C(NCC1(N2CCOCC2)CCCCC1)c1cc(=O)[nH]c2ccccc12`, the inhibition is inactive: -13.5%.

With `COc1cc(C(=O)NCC2(N3CCCCC3)CCCCC2)ccc1OC(F)F`, the inhibition is inactive: 2.6%.

As for `COc1ccc(NC2CCN(C(=O)OC(C)(C)C)CC2)cc1`, the inhibition is inactive: 2.43%.

With `CN1CCN(CCOC(=O)C(O)(c2ccccc2)c2ccccc2)CC1`, the inhibition is inactive: -6.16%.

Regarding `O=C(NCC1(N2CCCCC2)CCCCC1)c1cccc(C(F)(F)F)c1`, the inhibition was inactive: 12.4%.

With `CCN1CCC(Nc2ccc(Cl)cc2)CC1`, the inhibition is inactive: 7.22%.

For `N#CC1(Nc2ccccc2)CCN(CCc2ccccc2)CC1`, the inhibition was inactive: 7.75%.

For the compound `O=C(NCC1(N2CCCCC2)CCCCC1)c1cccc([N+](=O)[O-])c1`, the inhibition was inactive: 6.27%.

Regarding `O=C(NCC1(N2CCCCC2)CCCCC1)c1ccc(OC(F)F)cc1`, the inhibition is inactive: 5.62%.

Take `CCOC(=O)N1CCC(Nc2cccc(C)c2)CC1`: the inhibition is inactive: 9.2%.

Regarding `COc1cc(C(=O)NCC2(N(C)C)CCCCC2)ccc1OC(F)F`, the inhibition was inactive: -1.75%.

On to `Cc1ccc(OCC(C)C)c(CN(CCCl)CCCl)c1`, for which the inhibition was inactive: -5.19%.

Consider `O=C(NCC1(N2CCCCC2)CCCCC1)c1ccc(F)cc1`, for which the inhibition is inactive: 3.86%.

In the case of `CCOC(=O)N1CCC(Nc2ccc(F)cc2)CC1`, the inhibition is inactive: 6.53%.

As for `COc1ccc(NC2CCN(CCc3ccccc3)CC2)c(OC)c1`, the inhibition was inactive: 80.7%.

Regarding `CCOc1ccc(C)cc1CN(CCCl)CCCl`, the inhibition was inactive: -1.56%.

For `O=C(NCC1(N2CCCCC2)CCCCC1)c1ccc(Cl)s1`, the inhibition was inactive: -3.43%.

On to `N#CC1(Nc2ccccc2)CCN(Cc2ccccc2)CC1`, for which the inhibition is inactive: -0.711%.

As for `O=C(OC1CN2CCC1CC2)C1c2ccccc2Oc2ccccc21` (stereo not drawn), the inhibition is inactive: -10.3%.

In the case of `CCOC(=O)N1CCC(Nc2ccc(OC)cc2)CC1`, the inhibition was inactive: -0.152%.

With `Cc1cc(C)cc(N(C(=O)c2ccccc2)C2CCN(C(=O)OC(C)(C)C)CC2)c1`, the inhibition is inactive: -3.35%.

Take `O=C(NCC1(N2CCOCC2)CCCCC1)c1cc2ccccc2o1`: the inhibition was inactive: 6.53%.

With `CSc1ccccc1C(=O)NCC1(N2CCCCC2)CCCCC1`, the inhibition is inactive: 11.1%.

Regarding `COc1ccc(C(=O)NCC2(N3CCCCC3)CCCCC2)cc1`, the inhibition was inactive: 0.0901%.

`COc1ccc(C(=O)NCC2(N3CCCCC3)CCCCC2)c(OC)c1OC`: the inhibition is inactive: 6.4%.

Regarding `CC(C)(C)OC(=O)N1CCC(N(C(=O)c2ccccc2)c2ccc(F)cc2)CC1`, the inhibition was inactive: -26.9%.

Take `O=C(NCC1(N2CCCCC2)CCCCC1)c1ccc(=O)[nH]c1`: the inhibition was inactive: 25.4%.

Take `O=C(NCC1(N2CCCCC2)CCCCC1)c1cccs1`: the inhibition is inactive: -1.22%.

Regarding `CN1CCC(Nc2ccc(Cl)cc2)CC1`, the inhibition is inactive: -5.63%.

Take `CCCOc1ccc(C)cc1CN(CCCl)CCCl`: the inhibition was inactive: -5.76%.

Regarding `COc1cccc(C(=O)N(c2cc(C)cc(C)c2)C2CCN(C(=O)OC(C)(C)C)CC2)c1`, the inhibition was inactive: 8.12%.

Consider `COc1cc(OC)cc(C(=O)NCC2(N3CCOCC3)CCCCC2)c1`, for which the inhibition was inactive: -0.806%.

On to `CCC(CO)(C(=O)OC1CN2CCC1CC2)c1ccccc1` (stereo not drawn), for which the inhibition is inactive: 29%.

With `CC(C)(C)OC(=O)N1CCC(Nc2ccccc2)CC1`, the inhibition was inactive: 11.1%.

`O=C(O)C1(Nc2ccccc2)CCN(Cc2ccccc2)CC1`: the inhibition was inactive: -21%.

Regarding `CCCOc1ccc(C(=O)NCC2(N(C)C)CCCCC2)cc1`, the inhibition is inactive: 2.97%.

With `CCOc1ncccc1C(=O)NCC1(N2CCOCC2)CCCCC1`, the inhibition was inactive: -3.92%.

For `CN1CCC(Nc2ccc(F)c(Cl)c2)CC1`, the inhibition is inactive: 0.625%.

Take `O=C(NCC1(N2CCCCC2)CCCCC1)c1ccco1`: the inhibition is inactive: 9.6%.

For the compound `CN(C)c1ccc(C(=O)NCC2(N3CCCCC3)CCCCC2)cc1`, the inhibition was inactive: -3.2%.

For the compound `CCN1CCC(Nc2cccc(F)c2)CC1`, the inhibition is inactive: 0.268%.

As for `Cc1ccc(C(=O)NCC2(N3CCCCC3)CCCCC2)o1`, the inhibition was inactive: -4.64%.

With `Fc1ccccc1NC1CCN(Cc2ccccc2)CC1`, the inhibition was inactive: 4.65%.

On to `COc1cc(OC)cc(C(=O)NCC2(N3CCCCC3)CCCCC2)c1`, for which the inhibition is inactive: -1.88%.

As for `CN(C)C1(CNC(=O)c2cccc(C#N)c2)CCCCC1`, the inhibition is inactive: 3.01%.

For `c1ccc(CN2CCC(Nc3ccccc3)CC2)cc1`, the inhibition is inactive: -10.8%.

For `CCCN1CCC(Nc2cc(OC)cc(OC)c2)CC1`, the inhibition was inactive: -10.1%.

On to `N#Cc1ccc(C(=O)NCC2(N3CCCCC3)CCCCC2)cc1`, for which the inhibition was inactive: 6%.

For `CC(C)(C)OC(=O)N1CCC(N(C(=O)c2ccccc2)c2ccc(Cl)cc2)CC1`, the inhibition was inactive: -13.2%.

For the compound `CCc1cc(C(=O)NCC2(N3CCCCC3)CCCCC2)sc1C`, the inhibition is inactive: -0.526%.

For `O=C(OC1CN2CCC1CC2)C1c2ccccc2C=Cc2ccccc21` (stereo not drawn), the inhibition was inactive: -8.37%.

On to `CCOC(=O)N1CCC(Nc2ccc(C)cc2)CC1`, for which the inhibition was inactive: -14.6%.

For the compound `COc1ccc(C(=O)NCC2(N3CCOCC3)CCCCC2)cc1OC`, the inhibition was inactive: 13.5%.

For the compound `COc1cc(C(=O)NCC2(N3CCOCC3)CCCCC2)cc(OC)c1C`, the inhibition is inactive: -4.63%.

Turning to `O=C(NCC1(N2CCOCC2)CCCCC1)c1cc(Br)ccc1Cl`, the inhibition was inactive: -3.04%.
